# Measurements published in patent US9611261B2, “Perfluorinated cyclopropyl fused 1,3-oxazin-2-amine compounds as beta-secretase inhibitors and methods of use” (AMGEN INC., priority 2013, dated 2017).
# Tested on: Abeta 40 in cerebrospinal fluid and brain
# Experiment: In vivo inhibition of beta-secretase: Abeta 40 reduction in CSF and brain of the rat
# Conditions: after 4 hrs
smiles,measurement,setting,value
"N#Cc1ccc(C(=O)Nc2cc(F)c(F)c([C@@]3(C(F)F)N=C(N)O[C@@H]4C[C@@H]43)c2)nc1 [Example 113, N-(3-((1R,5S,6R)-3-amino-5-(difluoromethyl)-2-oxa-4-azabicyclo[4.1.0]hept-3-en-5-yl)-4,5-difluorophenyl)-5-cyanopicolinamide]",% reduction of rat CSF levels at 10 pmk,"Abeta 40, rat CSF, 10 mpk",65%
same,% reduction of rat brain levels at 10 mpk,"Abeta 40, rat brain",58%
